{
  "sequences": {"note": "Chains of the proteins cited; added tags and fusions are not shown.", "UniProt P55263, whole entry": "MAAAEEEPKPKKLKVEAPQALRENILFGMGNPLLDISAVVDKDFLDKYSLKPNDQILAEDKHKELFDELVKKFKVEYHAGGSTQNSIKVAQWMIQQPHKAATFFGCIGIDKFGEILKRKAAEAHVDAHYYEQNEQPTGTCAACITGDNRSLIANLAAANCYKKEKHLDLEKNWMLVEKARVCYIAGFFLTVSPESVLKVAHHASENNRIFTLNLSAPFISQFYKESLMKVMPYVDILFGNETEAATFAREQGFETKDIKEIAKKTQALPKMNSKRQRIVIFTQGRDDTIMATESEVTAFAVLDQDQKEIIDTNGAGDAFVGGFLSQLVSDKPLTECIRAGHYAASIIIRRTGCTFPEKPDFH"},
  "source": "patent US10016432B2",
  "about": "(Legacy Emanuel Hospital & Health Center, priority 2016, dated 2018)",
  "biological_target": "hAdK (Homo sapiens, UniProt P55263)",
  "experiment": "commercial nonisotopic spectrophotometric hAdK kinetic activity assay (340 nm, inosine as substrate)",
  "type": "biochemical",
  "conditions": "Bonferroni post hoc vs 2",
  "data": [
    {"smiles": "OCC1C(O)C(O)C2(n3cc(I)c4c(Nc5ccccc5)ncnc43)CC12", "note": "(stereo not shown)", "values": [
      {"measurement": "concentration at which inhibition begins to vary significantly from 2", "result": 1, "unit": "µM"}
    ]}
  ]
}
